Data published in PubChem BioAssay (NCI).
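48-hour exposure; five concentrations; linearly interpolated endpoints. TGI: total growth inhibition.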

What was measured:
Assay in all cases: NCI anticancer screen, dose series, 48 h
786-0 renal = tested on: 786-0 renal
A498 renal = tested on: A498 renal
A549 NSCLC = tested on: A549 NSCLC
ACHN renal = tested on: ACHN renal
BT-549 breast = tested on: BT-549 breast
CAKI-1 renal = tested on: CAKI-1 renal
CCRF-CEM leukemia = tested on: CCRF-CEM leukemia
COLO 205 colon = tested on: COLO 205 colon
DU-145 prostate = tested on: DU-145 prostate
EKVX NSCLC = tested on: EKVX NSCLC
HCC-2998 colon = tested on: HCC-2998 colon
HCT-116 colon = tested on: HCT-116 colon
HCT-15 colon = tested on: HCT-15 colon
HL-60(TB) leukemia = tested on: HL-60(TB) leukemia
HOP-62 NSCLC = tested on: HOP-62 NSCLC
HOP-92 NSCLC = tested on: HOP-92 NSCLC
HS 578T breast = tested on: HS 578T breast
HT29 colon = tested on: HT29 colon
IGROV1 ovarian = tested on: IGROV1 ovarian
K-562 leukemia = tested on: K-562 leukemia
KM12 colon = tested on: KM12 colon
LOX IMVI melanoma = tested on: LOX IMVI melanoma
M14 melanoma = tested on: M14 melanoma
MALME-3M melanoma = tested on: MALME-3M melanoma
MCF7 breast = tested on: MCF7 breast
MDA-MB-231 breast = tested on: MDA-MB-231 breast
MDA-MB-435 = tested on: MDA-MB-435
MDA-N = tested on: MDA-N
MOLT-4 leukemia = tested on: MOLT-4 leukemia
NCI-H226 lung = tested on: NCI-H226 lung
NCI-H23 lung = tested on: NCI-H23 lung
NCI-H322M lung = tested on: NCI-H322M lung
NCI-H460 lung = tested on: NCI-H460 lung
NCI-H522 lung = tested on: NCI-H522 lung
NCI/ADR-RES ovarian = tested on: NCI/ADR-RES ovarian
OVCAR-3 ovarian = tested on: OVCAR-3 ovarian
OVCAR-4 ovarian = tested on: OVCAR-4 ovarian
OVCAR-5 ovarian = tested on: OVCAR-5 ovarian
OVCAR-8 ovarian = tested on: OVCAR-8 ovarian
PC-3 prostate = tested on: PC-3 prostate
RPMI-8226 leukemia = tested on: RPMI-8226 leukemia
RXF 393 renal = tested on: RXF 393 renal
SF-268 CNS = tested on: SF-268 CNS
SF-295 CNS = tested on: SF-295 CNS
SF-539 CNS = tested on: SF-539 CNS
SK-MEL-2 melanoma = tested on: SK-MEL-2 melanoma
SK-MEL-28 melanoma = tested on: SK-MEL-28 melanoma
SK-MEL-5 melanoma = tested on: SK-MEL-5 melanoma
SK-OV-3 ovarian = tested on: SK-OV-3 ovarian
SN12C renal = tested on: SN12C renal
SNB-19 CNS = tested on: SNB-19 CNS
SNB-75 CNS = tested on: SNB-75 CNS
SR leukemia = tested on: SR leukemia
SW-620 colon = tested on: SW-620 colon
T-47D breast = tested on: T-47D breast
TK-10 renal = tested on: TK-10 renal
U251 CNS = tested on: U251 CNS
UACC-257 melanoma = tested on: UACC-257 melanoma
UACC-62 melanoma = tested on: UACC-62 melanoma
UO-31 renal = tested on: UO-31 renal

Cc1cc(N(CCCl)CCCl)ccc1C=O
TGI (786-0 renal): > 100 µM | TGI (A498 renal): 2690 nM | TGI (A549 NSCLC): 80 µM | TGI (ACHN renal): > 100 µM | TGI (BT-549 breast): 66.5 µM | TGI (CAKI-1 renal): > 100 µM | TGI (CCRF-CEM leukemia): > 100 µM | TGI (COLO 205 colon): 88.1 µM | TGI (DU-145 prostate): > 100 µM | TGI (EKVX NSCLC): 96.3 µM | TGI (HCC-2998 colon): > 100 µM | TGI (HCT-116 colon): > 100 µM | TGI (HCT-15 colon): > 100 µM | TGI (HL-60(TB) leukemia): 82 µM | TGI (HOP-62 NSCLC): > 100 µM | TGI (HOP-92 NSCLC): 40.8 µM | TGI (HS 578T breast): 85.3 µM | TGI (HT29 colon): > 100 µM | TGI (IGROV1 ovarian): > 100 µM | TGI (K-562 leukemia): > 100 µM | TGI (KM12 colon): > 100 µM | TGI (LOX IMVI melanoma): > 100 µM | TGI (M14 melanoma): > 100 µM | TGI (MALME-3M melanoma): 40.1 µM | TGI (MCF7 breast): > 100 µM | TGI (MDA-MB-231 breast): > 100 µM | TGI (MDA-MB-435): > 100 µM | TGI (MDA-N): > 100 µM | TGI (MOLT-4 leukemia): 81.8 µM | TGI (NCI-H226 lung): 16.6 µM | TGI (NCI-H23 lung): > 100 µM | TGI (NCI-H322M lung): > 100 µM | TGI (NCI-H460 lung): > 100 µM | TGI (NCI-H522 lung): 64.7 µM | TGI (NCI/ADR-RES ovarian): > 100 µM | TGI (OVCAR-3 ovarian): > 100 µM | TGI (OVCAR-4 ovarian): > 100 µM | TGI (OVCAR-5 ovarian): 53.2 µM | TGI (OVCAR-8 ovarian): > 100 µM | TGI (PC-3 prostate): > 100 µM | TGI (RPMI-8226 leukemia): > 100 µM | TGI (RXF 393 renal): 43 µM | TGI (SF-268 CNS): > 100 µM | TGI (SF-295 CNS): > 100 µM | TGI (SF-539 CNS): > 100 µM | TGI (SK-MEL-2 melanoma): 75.5 µM | TGI (SK-MEL-28 melanoma): > 100 µM | TGI (SK-MEL-5 melanoma): > 100 µM | TGI (SK-OV-3 ovarian): > 100 µM | TGI (SN12C renal): > 100 µM | TGI (SNB-19 CNS): > 100 µM | TGI (SNB-75 CNS): > 100 µM | TGI (SR leukemia): > 100 µM | TGI (SW-620 colon): > 100 µM | TGI (T-47D breast): > 100 µM | TGI (TK-10 renal): 66.9 µM | TGI (U251 CNS): > 100 µM | TGI (UACC-257 melanoma): 29.7 µM | TGI (UACC-62 melanoma): 10 µM | TGI (UO-31 renal): 87.4 µM
